Experimental data from PubChem BioAssay (NCI).
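Interpolation was linear, between the two tested concentrations surrounding the appropriate level; five concentrations were tested over 48 hours in 96-well plates. At the GI50, growth is halved. At the TGI there is no net growth.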

Legend:
Assay in all cases: inhibition of tumour cell growth, NCI panel, 48 h
HCT-116 colon = system: HCT-116 colon
UO-31 renal = system: UO-31 renal
HOP-18 NSCLC = system: HOP-18 NSCLC
SN12C renal = system: SN12C renal
HCT-15 colon = system: HCT-15 colon
XF 498 CNS = system: XF 498 CNS
DMS 114 small cell lung = system: DMS 114 small cell lung
IGROV1 ovarian = system: IGROV1 ovarian
M14 melanoma = system: M14 melanoma
NCI-H460 lung = system: NCI-H460 lung
RPMI-8226 leukemia = system: RPMI-8226 leukemia
LXFL 529 NSCLC = system: LXFL 529 NSCLC
HCC-2998 colon = system: HCC-2998 colon
CCRF-CEM leukemia = system: CCRF-CEM leukemia
SF-539 CNS = system: SF-539 CNS
UACC-62 melanoma = system: UACC-62 melanoma
M19-MEL melanoma = system: M19-MEL melanoma
A498 renal = system: A498 renal
HT29 colon = system: HT29 colon
MALME-3M melanoma = system: MALME-3M melanoma
SW-620 colon = system: SW-620 colon
EKVX NSCLC = system: EKVX NSCLC
SNB-78 CNS = system: SNB-78 CNS
U251 CNS = system: U251 CNS
KM20L2 colon = system: KM20L2 colon
SK-MEL-28 melanoma = system: SK-MEL-28 melanoma
OVCAR-3 ovarian = system: OVCAR-3 ovarian
UACC-257 melanoma = system: UACC-257 melanoma
OVCAR-8 ovarian = system: OVCAR-8 ovarian
RXF 393 renal = system: RXF 393 renal
HOP-62 NSCLC = system: HOP-62 NSCLC
LOX IMVI melanoma = system: LOX IMVI melanoma
MOLT-4 leukemia = system: MOLT-4 leukemia
ACHN renal = system: ACHN renal
786-0 renal = system: 786-0 renal
SF-295 CNS = system: SF-295 CNS
K-562 leukemia = system: K-562 leukemia
A549 NSCLC = system: A549 NSCLC
SK-OV-3 ovarian = system: SK-OV-3 ovarian
HL-60(TB) leukemia = system: HL-60(TB) leukemia
SF-268 CNS = system: SF-268 CNS
NCI-H23 lung = system: NCI-H23 lung
OVCAR-4 ovarian = system: OVCAR-4 ovarian
SR leukemia = system: SR leukemia
SNB-75 CNS = system: SNB-75 CNS
SNB-19 CNS = system: SNB-19 CNS
DLD-1 colon = system: DLD-1 colon
TK-10 renal = system: TK-10 renal
KM12 colon = system: KM12 colon
NCI-H322M lung = system: NCI-H322M lung

SMILES: Cc1[nH]c2c(C)c([N+](=O)[O-])c(C)c([N+](=O)[O-])c2c1[N+](=O)[O-]
- GI50 (HCT-116 colon): 5.98 µM
- TGI (HCT-116 colon): 20.2 µM
- GI50 (UO-31 renal): 6.52 µM
- TGI (UO-31 renal): 20.3 µM
- GI50 (HOP-18 NSCLC): 2.39 µM
- TGI (HOP-18 NSCLC): 11.3 µM
- GI50 (SN12C renal): 11.8 µM
- TGI (SN12C renal): 27.3 µM
- GI50 (HCT-15 colon): 4.98 µM
- TGI (HCT-15 colon): 18.4 µM
- GI50 (XF 498 CNS): 2.26 µM
- TGI (XF 498 CNS): 14.9 µM
- GI50 (DMS 114 small cell lung): 3.26 µM
- TGI (DMS 114 small cell lung): 14.2 µM
- GI50 (IGROV1 ovarian): 5.11 µM
- TGI (IGROV1 ovarian): 21.2 µM
- GI50 (M14 melanoma): 13.4 µM
- TGI (M14 melanoma): 27.2 µM
- GI50 (NCI-H460 lung): 10.5 µM
- TGI (NCI-H460 lung): 24.3 µM
- GI50 (RPMI-8226 leukemia): 3.66 µM
- TGI (RPMI-8226 leukemia): 17.7 µM
- GI50 (LXFL 529 NSCLC): 9.51 µM
- TGI (LXFL 529 NSCLC): 31.7 µM
- GI50 (HCC-2998 colon): 4.19 µM
- TGI (HCC-2998 colon): 16.3 µM
- GI50 (CCRF-CEM leukemia): 4.41 µM
- TGI (CCRF-CEM leukemia): 28 µM
- GI50 (SF-539 CNS): 10.4 µM
- TGI (SF-539 CNS): 22.3 µM
- GI50 (UACC-62 melanoma): 3.21 µM
- TGI (UACC-62 melanoma): 12.3 µM
- GI50 (M19-MEL melanoma): 10 µM
- TGI (M19-MEL melanoma): 22.6 µM
- GI50 (A498 renal): 4.77 µM
- TGI (A498 renal): 19.1 µM
- GI50 (HT29 colon): 7.72 µM
- TGI (HT29 colon): 27.2 µM
- GI50 (MALME-3M melanoma): 5.21 µM
- TGI (MALME-3M melanoma): 23.5 µM
- GI50 (SW-620 colon): 13.7 µM
- TGI (SW-620 colon): 29.2 µM
- GI50 (EKVX NSCLC): 4.23 µM
- TGI (EKVX NSCLC): 19.1 µM
- GI50 (SNB-78 CNS): 14.7 µM
- TGI (SNB-78 CNS): 36.3 µM
- GI50 (U251 CNS): 5.7 µM
- TGI (U251 CNS): 19.3 µM
- GI50 (KM20L2 colon): 6.8 µM
- TGI (KM20L2 colon): 25.9 µM
- GI50 (SK-MEL-28 melanoma): 6.49 µM
- TGI (SK-MEL-28 melanoma): 20.3 µM
- GI50 (OVCAR-3 ovarian): 3.27 µM
- TGI (OVCAR-3 ovarian): 16.6 µM
- GI50 (UACC-257 melanoma): 5.81 µM
- TGI (UACC-257 melanoma): 17.1 µM
- GI50 (OVCAR-8 ovarian): 6.13 µM
- TGI (OVCAR-8 ovarian): 22.9 µM
- GI50 (RXF 393 renal): 9.59 µM
- TGI (RXF 393 renal): 21.9 µM
- GI50 (HOP-62 NSCLC): 11.9 µM
- TGI (HOP-62 NSCLC): 24.3 µM
- GI50 (LOX IMVI melanoma): 4.61 µM
- TGI (LOX IMVI melanoma): 16.6 µM
- GI50 (MOLT-4 leukemia): 4.63 µM
- TGI (MOLT-4 leukemia): 22 µM
- GI50 (ACHN renal): 7.39 µM
- TGI (ACHN renal): 39.7 µM
- GI50 (786-0 renal): 11.3 µM
- TGI (786-0 renal): 24.2 µM
- GI50 (SF-295 CNS): 6.2 µM
- TGI (SF-295 CNS): 19.1 µM
- GI50 (K-562 leukemia): 5.83 µM
- TGI (K-562 leukemia): 30.9 µM
- GI50 (A549 NSCLC): 5.68 µM
- TGI (A549 NSCLC): 35.7 µM
- GI50 (SK-OV-3 ovarian): 14.4 µM
- TGI (SK-OV-3 ovarian): 29.3 µM
- TGI (HL-60(TB) leukemia): 21.8 µM
- GI50 (SF-268 CNS): 6.16 µM
- GI50 (NCI-H23 lung): 3.49 µM
- TGI (NCI-H23 lung): 12.2 µM
- GI50 (OVCAR-4 ovarian): 10 µM
- TGI (OVCAR-4 ovarian): 28.8 µM
- GI50 (SR leukemia): 6.47 µM
- TGI (SR leukemia): 25.4 µM
- GI50 (SNB-75 CNS): 16.3 µM
- TGI (SNB-75 CNS): 30 µM
- GI50 (SNB-19 CNS): 6.34 µM
- TGI (SNB-19 CNS): 21.5 µM
- GI50 (DLD-1 colon): 11.8 µM
- TGI (DLD-1 colon): 25.8 µM
- GI50 (TK-10 renal): 9.64 µM
- TGI (TK-10 renal): 61.2 µM
- GI50 (KM12 colon): 10.5 µM
- TGI (KM12 colon): 23 µM
- GI50 (NCI-H322M lung): 11 µM
- TGI (NCI-H322M lung): 29.4 µM
